Results as given in PubChem BioAssay (Tox21).
Only a part is listed here, and it is no random draw. Results filed as inconclusive are left out. Where a call stands in place of a potency, no number is given. Activity calls are given as the source filed them. The call rests on the fitted dose curve.

Assay: qHTS assay to identify small molecule agonists of the hypoxia (HIF-1) signaling pathway - cell viability counter screen (AID 1224844); further: nearly all actives have a fitted effect of over 50% in size
Details: HRE-bla ME-180 viability, CellTiter-Glo luminescence, 17 h; series mostly up to 76.8 µM
From the text: National Center for Advancing Translational Sciences [NCATS]
NIH Chemical Genomics Center [NCGC]
U.S. Environmental Protection Agency [EPA]
National Institutes of Environmental Health Sciences [NIEHS]
National Toxicology Program [NTP]
U.S. Food and Drug Administration [FDA]
Hypoxia-inducible factor-1 (HIF-1) is the major hypoxia-regulated transcription factor that controls cellular responses to low oxygen concentration. HIF-1 is composed of two subunits: hypoxia responsive HIF-1-alpha and constitutively expressed HIF-1-beta, which is also known as aryl hydrocarbon receptor nuclear translocator. During hypoxic conditions, HIF-1-alpha heterodimerizes with HIF-1-beta and translocates into the nucleus where the HIF-1 complex binds to the hypoxia-response element (HRE) and activates expression of target genes such as VEGF (vascular endothelial growth factor). The HIF-1 pathway is essential to normal growth and development, and is involved in the pathophysiology of cancer, inflammation, and ischemia.
Using a beta-lactamase reporter-gene under control of the hypoxia response element, a cell-based assay [CellSensor(TM) HRE-bla ME-180 from Life Technologies, Carlsbad, CA] was used to measure hypoxia-induced signaling. Tox21 10K library compounds were measured for their ability to induce the reporter gene activity. The cytotoxicity of the Tox21 compound library against HRE-bla ME-180 cell line was tested in parallel by measuring cell viability using CellTiter-Glo assay (Promega, Madison, WI) in the same assay wells.
Tox21 Assay Protocol Summary:
HRE-bla ME-180 cells were dispensed at 2,000 cells per well in 6 uL of assay medium containing 0.5% dialyzed FBS into black wall/clear-bottom 1536-well plates using a Multidrop Combi (Thermo Scientific, Waltham, MA) dispenser. After the assay plates were incubated at 37C and 5% CO2 for 5 hrs, 23 nL of compounds dissolved in DMSO, positive controls or DMSO only was transferred to each well of the assay plate using a Pintool station (Kalypsys, San Diego, CA). The assay plates were incubated at 37C and 5% CO2 for 17 hrs. One uL of LiveBLAzerTM B/G FRET substrate (CCF4-AM) (Life Technologies) was added to each well using a Flying Reagent Dispenser (FRD, Aurora Discovery, San Diego, CA). After 2 hr incubation at room temperature, fluorescence intensity (405 nm excitation, 460 nm and 530 nm emissions) was measured using an Envision plate reader (PerkinElmer, Shelton, CT). For cytotoxicity, 4 ul/well of CellTiter-Glo reagent was added into the assay plates using an FRD. After 30 min incubation at room temperature, the luminescence intensity was measured using a ViewLux plate reader (PerkinElmer).
Potency means the concentration at half of the fitted maximal effect.

Q: Which Potency does the source give for `CN(C(=O)Cc1ccc(Cl)c(Cl)c1)[C@H]1CC[C@@]2(CCCO2)C[C@@H]1N1CCCC1` here?
A: inactive

Q: For `Cc1cc([N+](=O)[O-])cc([N+](=O)[O-])c1O`, which Potency is on record?
A: inactive

Q: With `O=C(Cl)OCCOC(=O)Cl` as the compound, how does the Potency read?
A: inactive

Q: Which Potency does the source give for `CCNC(C)Cc1ccc2c(c1)OCO2` (stereo unspecified) here?
A: inactive

Q: Which Potency does the source give for `CCOC(=O)Cl` here?
A: inactive

Q: For `O=[N+]([O-])c1ccc([N+](=O)[O-])cc1`, which Potency is on record?
A: inactive

Q: Which Potency does the source give for `CCCCOP(OCCCC)OCCCC` here?
A: inactive

Q: For `Cc1cc([N+](=O)[O-])c(O)c([N+](=O)[O-])c1`, which Potency is on record?
A: inactive

Q: Which Potency does the source give for `NC(=O)Nc1ccc([As](=O)(O)O)cc1` here?
A: inactive

Q: For `O=[P+](Oc1ccccc1)Oc1ccccc1`, which Potency is on record?
A: inactive

Q: For `CC(C)CCCCCCCOP(OCCCCCCCC(C)C)Oc1ccccc1`, which Potency is on record?
A: inactive

Q: For `O=P(Cl)(Oc1ccccc1)Oc1ccccc1`, which Potency is on record?
A: inactive

Q: With `CCOP(=S)(CC)Sc1ccccc1` (stereo unspecified) as the compound, how does the Potency read?
A: inactive

Q: Which Potency does the source give for `ClP(Cl)c1ccccc1` here?
A: inactive

Q: Which Potency does the source give for `CC(C)OP(=S)(OC(C)C)SCCNS(=O)(=O)c1ccccc1` here?
A: inactive

Q: Which Potency does the source give for `CN(C(=O)Cc1cccc2occc12)[C@H]1CC[C@@]2(CCCO2)C[C@@H]1N1CCCC1` here?
A: inactive

Q: Which Potency does the source give for `CCCCO[P+](=O)OCCCC` here?
A: inactive

Q: Which Potency does the source give for `O=[p+]1oc2ccccc2c2ccccc21` (stereo unspecified) here?
A: inactive

Q: With `O=P(Cl)(Cl)c1ccccc1` as the compound, how does the Potency read?
A: inactive

Q: Which Potency does the source give for `N#CSc1ccc([N+](=O)[O-])cc1[N+](=O)[O-]` here?
A: active: 9.77 µM

Q: With `O=C(Cl)Oc1ccccc1` as the compound, how does the Potency read?
A: inactive

Q: With `CCCCC(CC)CO[P+](=O)OCC(CC)CCCC` (stereo unspecified) as the compound, how does the Potency read?
A: inactive

Q: With `COC(=O)Cl` as the compound, how does the Potency read?
A: inactive

Q: With `CCC(C)(OOC(C)(C)C)OOC(C)(C)C` as the compound, how does the activity change, negative = cytotoxicity read?
A: inactive: 0.981% [at 15.8 µM]

Q: For `CN(C(=O)Cc1ccccc1)[C@H]1CC[C@@]2(CCCO2)C[C@@H]1N1CCCC1`, which Potency is on record?
A: inactive

Q: Which Potency does the source give for `O=[N+]([O-])c1ccc(S(=O)(=O)O)c([N+](=O)[O-])c1` here?
A: inactive
